Measurements published in patent publication US7723071B2 (priority 1992, dated 2010).

The chains behind the UniProt entries cited, without tags or fusion partners. Where a name states a change or a piece, a line headed by the entry shows the natural chain unless it says otherwise.
UniProt P32300, whole entry V68C, looked up: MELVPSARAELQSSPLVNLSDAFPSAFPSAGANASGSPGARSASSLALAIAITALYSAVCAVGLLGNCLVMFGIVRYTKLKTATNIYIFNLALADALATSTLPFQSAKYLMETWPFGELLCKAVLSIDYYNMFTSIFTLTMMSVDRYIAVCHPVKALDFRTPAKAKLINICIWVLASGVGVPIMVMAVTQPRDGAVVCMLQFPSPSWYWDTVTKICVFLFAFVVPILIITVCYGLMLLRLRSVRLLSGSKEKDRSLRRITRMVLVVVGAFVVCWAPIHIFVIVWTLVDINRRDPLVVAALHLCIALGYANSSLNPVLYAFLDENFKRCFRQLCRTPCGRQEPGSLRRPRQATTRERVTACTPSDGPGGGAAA
UniProt P41146: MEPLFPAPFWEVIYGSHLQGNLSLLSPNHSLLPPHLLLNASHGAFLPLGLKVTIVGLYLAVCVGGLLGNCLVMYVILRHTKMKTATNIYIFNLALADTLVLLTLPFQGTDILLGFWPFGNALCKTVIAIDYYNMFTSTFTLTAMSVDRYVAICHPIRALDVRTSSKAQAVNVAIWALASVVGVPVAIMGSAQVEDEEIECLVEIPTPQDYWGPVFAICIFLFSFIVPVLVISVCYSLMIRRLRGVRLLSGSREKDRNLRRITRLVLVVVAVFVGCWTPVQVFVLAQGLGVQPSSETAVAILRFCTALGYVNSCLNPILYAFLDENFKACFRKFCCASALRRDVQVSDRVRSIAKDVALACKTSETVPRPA
UniProt P42866, whole entry R47P/S53N/H54D/V245G/R258Q, looked up: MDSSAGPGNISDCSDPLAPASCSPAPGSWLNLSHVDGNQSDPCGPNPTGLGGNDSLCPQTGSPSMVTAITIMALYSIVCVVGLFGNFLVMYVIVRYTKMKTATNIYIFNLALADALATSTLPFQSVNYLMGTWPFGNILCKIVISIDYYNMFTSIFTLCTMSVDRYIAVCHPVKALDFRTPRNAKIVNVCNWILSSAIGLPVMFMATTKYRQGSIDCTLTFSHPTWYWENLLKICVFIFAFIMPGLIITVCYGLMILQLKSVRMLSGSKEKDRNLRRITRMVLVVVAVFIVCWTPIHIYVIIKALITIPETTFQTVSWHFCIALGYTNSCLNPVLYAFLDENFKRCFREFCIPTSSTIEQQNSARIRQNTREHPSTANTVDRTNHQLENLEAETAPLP

How the values were obtained:
[1] = biological target: DOR-1 clone (delta opioid receptor) (Mus musculus, UniProt P32300, V68C); details: cell membrane fractions from cells expressing DOR-1
ORL-1 = ORL-1 (Homo sapiens, UniProt P41146); details: stable cell line transfected with ORL-1; cited from earlier work
[2] = biological target: DOR-2 (mMOR-1) mu receptor (Mus musculus, UniProt P42866, H54D/R258Q/R47P/S53N/V245G); details: mammalian cells transfected with the clone in vector pcDNA
[3] = biological target: receptor encoded by the DOR-1 clone (delta opioid receptor) (Mus musculus, UniProt P32300, V68C); assay: displacement of 3H-[…] from membranes of COS cells transfected with DOR-1

CO[C@]12CC[C@@]3(C[C@@H]1C(C)(C)O)[C@H]1Cc4ccc(O)c5c4[C@@]3(CCN1CC1CC1)[C@H]2O5
displacement of 125I-DADLE binding [1]: displaced by nanomolar concentrations
reversal of etorphine-induced cyclase inhibition (ORL-1): reversible with diprenorphine
binding to transfected cells [2]: also bind
displacement of 3H-diprenorphine ([3]; 5 nM 3H-diprenorphine, COS cell membranes of cells transfected with DOR-1 (FIGS. 2 and 3)): displaced
displacement of 3H-diprenorphine, rank in decreasing order of affinity ([3]; competition for 3H-diprenorphine, membranes of transfected COS-7 cells (FIGS. 2 and 3)): in decreasing order of affinity, was observed with diprenorphine, etorphine, levorphanol and morphine
